Molecules are shown by their SMILES. The list shows a part of the results, in another mix than the full data. Active and inactive are the calls of the source. Calls come from the whole dose curve; as a rule, active = well fitted activation curve with a large enough effect; inconclusive = small, poorly fitted or top-dose-only effect; inactive = no such curve, though single readings can be large or run the other way.

This assay in a line: qHTS Assay for Identifying a Potential Treatment of Ataxia-Telangiectasia. Note: % of control where 0% means no effect; nearly all actives have a fitted effect of over 45% in size. As to conditions: […] A-T fibroblasts, KAP-1 phosphorylation AlphaLISA, neocarzinostatin DNA damage 30 min before lysis; at 57.5 µM (top of the series). An excerpt:
NIH Chemical Genomics Center [NCGC] NIH Molecular Libraries Probe Centers Network [MLPCN] MLPCN Grant: MH089030-01 Assay Submitter (PI): Wei Zheng and Yosef Shiloh Ataxia-telangiectasia (A-T) is a devastating and progressive disease for which, there is no cure. Although A-T is a multisystem disease, it is stereotyped characterized by its neurological symptoms such as truncal ataxia, due to cerebellar cortical degeneration of the Purkinje and granule cells. Other symptoms of A-T are telangiectasias (dilated blood vessels), primary immunodeficiency, marked sensitivity to ionizing radiation (IR), chromosomal instability and predisposition to cancer. The underlying genetic cause of A-T is null mutations in the ATM (A-T mutated) gene. ATM is a nuclear serine/threonine kinase that functions as a master regulator of the cellular responses to double strand breaks (DSBs) in the DNA. Upon activation by DSBs, ATM phosphorylates a plethora of down stream targets, including KAP-1 on Ser82452. […] To screen for small molecules that will compensate for the loss of ATM in cells derived from A-T patients, we monitored KAP-1 phosphorylation as a readout for ATM-like activity using an AlphaLISA assay.
qHTS Assay Protocol: Step,Parameter,Value,Description 1. […] Readout, EnVision, EnVision plate reader. […] EnVision protocol for 1536-well AlphaScreen read (30ms excitation, 100ms read), about 10 min/plate.
In the case of `CCC(=O)N(c1ccccc1)C1(COC)CCN(CCc2cccs2)CC1`, the activation was inactive: -8.2%. With `CCC(=O)N(c1ccccc1)C1(COC)CCN(CCn2nnn(CC)c2=O)CC1`, the activation was inactive: 7.37%.

The values above are taken from PubChem BioAssay AID485349 (National Center for Advancing Translational Sciences (NCATS), 2010).
